Here are results for one compound from patent US8324211B2, “Inhibitors of bruton's tyrosine kinase” (Roche Palo Alto LLC, priority 2008, dated 2012).

Protein sequences, listed by entry. Tags and fused reporters are not part of them.
UniProt Q06187, whole entry: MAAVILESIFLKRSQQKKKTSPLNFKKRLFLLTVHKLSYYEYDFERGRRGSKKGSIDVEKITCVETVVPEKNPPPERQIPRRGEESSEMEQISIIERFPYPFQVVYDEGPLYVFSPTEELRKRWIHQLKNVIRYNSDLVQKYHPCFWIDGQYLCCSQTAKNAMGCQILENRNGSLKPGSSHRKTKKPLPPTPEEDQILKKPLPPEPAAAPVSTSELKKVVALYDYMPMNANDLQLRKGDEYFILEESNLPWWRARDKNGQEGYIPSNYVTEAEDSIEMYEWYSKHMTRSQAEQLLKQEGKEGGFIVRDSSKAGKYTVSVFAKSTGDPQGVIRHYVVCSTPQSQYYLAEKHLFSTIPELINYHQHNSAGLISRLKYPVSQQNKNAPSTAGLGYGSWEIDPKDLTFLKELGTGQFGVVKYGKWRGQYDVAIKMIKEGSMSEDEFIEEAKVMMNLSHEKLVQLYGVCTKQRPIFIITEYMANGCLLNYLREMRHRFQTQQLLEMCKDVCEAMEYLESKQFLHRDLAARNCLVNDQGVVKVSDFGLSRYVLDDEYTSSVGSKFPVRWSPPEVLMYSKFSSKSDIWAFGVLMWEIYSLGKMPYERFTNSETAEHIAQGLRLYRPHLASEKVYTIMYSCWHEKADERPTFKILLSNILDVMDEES

This experiment addresses Btk enzyme (His-tagged, full-length) (Homo sapiens, UniProt Q06187). The experiment can be described thus: Bruton's Tyrosine Kinase (Btk) Inhibition Assay (33P filtration capture). To be noted: read-out: Btk inhibition IC50; 100 μM ATP, 30 μM peptide substrate, 30 min at 30° C. The text has this: Bruton's Tyrosine Kinase (Btk) Inhibition Assay
The assay is a capture of radioactive ^33P phosphorylated product through filtration. The interactions of Btk, biotinylated SH2 peptide substrate (Src homology), and ATP lead to phosphorylation of the peptide substrate. Biotinylated product is bound streptavidin sepharose beads. All bound, radiolabeled products are detected by scintillation counter.
Plates assayed are 96-well polypropylene (Greiner) and 96-well 1.2 μm hydrophilic PVDF filter plates (Millipore). Concentrations reported here are final assay concentrations: 10-100 μM compounds in DMSO (Burdick and Jackson), 5-10 nM Btk enzyme (His-tagged, full-length), 30 μM peptide substrate (Biotin-Aca-AAAEEIYGEI-NH2), 100 μM ATP (Sigma), 8 mM imidazole (Sigma, pH 7.2), 8 mM glycerol-2-phosphate (Sigma), 200 μM EGTA (Roche Diagnostics), 1 mM MnCl2 (Sigma), 20 mM MgCl2 (Sigma), 0.1 mg/ml BSA (Sigma), 2 mM DTT (Sigma), 1 μCi^33P ATP (Amersham), 20% streptavidin sepharose beads (Amersham), 50 mM EDTA (Gibco), 2 M NaCl (Gibco), 2 M NaCl w/1% phosphoric acid (Gibco), microscint-20 (Perkin Elmer).
IC50 determinations are calculated from 10 data points per compound utilizing data produced from a standard 96-well plate assay template. […] Background was counted in the absence of peptide substrate. Total activity was determined in the presence of peptide substrate. […]

A word on the IC50: it is the concentration needed to halve the response being measured. Regarding `CN(C)c1ccc2c(c1)CCN(c1cccc(-c3cc(Nc4ccn(C)n4)c4nccn4c3)c1CO)C2=O`, the IC50 came to 13 nM.
